Measured values reported in publication PMC5452035, “Structural insight into recognition of phosphorylated threonine‐4 of RNA polymerase II C‐terminal domain by Rtt103p” (EMBO Reports, 2017).

Biological target: T1, Rtt103p CID (Saccharomyces cerevisiae, UniProt Q05543)
T1 construct: Rtt103p CID (3‐131–6xHIS) was expressed and purified as previously described; 6xHis (C); made in house; host or cells: E. coli BL21-Codon Plus (DE3)-RIPL
T1 sequence (Q05543 3-131): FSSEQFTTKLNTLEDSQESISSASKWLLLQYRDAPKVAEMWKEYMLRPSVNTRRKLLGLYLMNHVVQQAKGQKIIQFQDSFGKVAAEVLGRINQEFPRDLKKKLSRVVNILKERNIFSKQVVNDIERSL
Test: Equilibrium binding by fluorescence anisotropy (FA), wild-type Rtt103p CID
Parameters: species or system yeast
Conditions: Rtt103p CID titrated into 10 nM FAM‐labelled CTD peptide, 10°C, 35 mM KH2PO4, 100 mM KCl, pH 6.8, 1:1 model with non‐specific binding, ± standard deviation of the fit, each data point average of three measurements

C[C@@H](O)[C@H](NC(=O)[C@@H]1CCCN1C(=O)[C@H](CO)NC(=O)[C@H](Cc1ccc(O)cc1)NC(=O)[C@H](CO)NC(=O)[C@@H]1CCCN1C(=O)[C@H](CO)NC(=O)[C@@H](NC(=O)[C@@H]1CCCN1C(=O)[C@H](CO)NC(=O)[C@H](Cc1ccc(O)cc1)NC(=O)[C@H](CO)NC(=O)[C@@H]1CCCN1C(=O)c1ccc2c(c1)C(=O)OC21c2ccc(O)cc2Oc2cc(O)ccc21)[C@@H](C)O)C(=O)N[C@@H](CO)C(=O)N1CCC[C@H]1C(=O)N[C@@H](CO)C(=O)O [non‐phosphorylated CTD]
Kd: 64 ± 2 µM
